Data as given in ChEMBL document CHEMBL3232933, “Pyrazole-5-carboxamides, novel inhibitors of receptor for advanced glycation end products (RAGE)” (Eur J Med Chem, 2014).

Protein sequences, listed by entry. Tags and fused reporters are not part of them. Lines headed by an entry give the natural chain unless they say otherwise; changes in a name come on top.
UniProt Q15109: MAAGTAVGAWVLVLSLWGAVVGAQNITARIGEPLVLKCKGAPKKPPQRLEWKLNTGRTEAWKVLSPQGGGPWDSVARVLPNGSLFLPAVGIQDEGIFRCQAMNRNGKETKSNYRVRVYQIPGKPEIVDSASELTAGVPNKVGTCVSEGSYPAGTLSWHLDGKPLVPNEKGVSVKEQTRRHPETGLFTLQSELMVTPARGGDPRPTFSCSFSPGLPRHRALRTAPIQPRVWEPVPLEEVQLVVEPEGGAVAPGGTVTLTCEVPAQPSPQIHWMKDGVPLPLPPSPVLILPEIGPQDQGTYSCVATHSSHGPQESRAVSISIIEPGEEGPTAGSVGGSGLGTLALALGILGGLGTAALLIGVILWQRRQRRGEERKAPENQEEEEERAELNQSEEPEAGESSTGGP

Legend:
[1] = target: T1, Advanced glycosylation end product-specific receptor (Homo sapiens, UniProt Q15109); assay: Inhibition of biotinylated human RAGE assessed as bound amyloid beta level after 60 mins by ELISA
Summary of the method: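 Biotinylated human RAGE (1 µg), oligomerised Aβ1-42 (pre-incubated in PBS for 24 h at 4 °C) and compound were incubated in TBS-T with 2.5% BSA on streptavidin plates for 60 min at ambient temperature. Bound Aβ was detected with HRP-4G8 (1:1000, 60 min), developed with TMB and stopped with sulfuric acid, then read at 450 nm. IC50 was fitted from serial dilutions.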

[2] = target: T1, Advanced glycosylation end product-specific receptor; assay: Binding affinity to biotinylated human RAGE by surface plasmon resonance analysis

pIC50 [1]: 5.72 | pKd [2]: 4.36
SMILES: CCCCOc1cc(OCCCN(CC)CC)ccc1NC(=O)c1cc(-c2ccc(Oc3ccc(F)cc3)cc2)nn1C

pIC50, pKd: −log10 of the molar value.
